Patent US6933318B1, “Topical organic ectoparasiticidal formulations” (Eli Lilly and Company, priority 1999, dated 2005)

Assay: Spreading of 14C zeta-cypermethrin from the dorsal midline of sheep in test vehicles
Assay type: in vivo
Conditions: back and perirenal fat, day 14
Experimental: The clipped areas were also swabbed. […] The quantity of zeta-cypermethrin in each sample was measured by liquid scintillation counting.

Q: For glyceryl tricaprylate/caprate, which “Tissue residues of zeta-cypermethrin” value is on record?
A: highest residue levels
